From publication PMC5748281 (ACS Omega, 2017)
Entries after “also recorded” stand apart in the source; their conditions may differ.

Experiments:
yeast = conditions: aniline metabolites in yeast; cited from earlier work
S. cerevisiae = assay: DEL; conditions: DEL assay, IC80 concentration

SMILES | increase in deletion frequencies over untreated control cells (yeast) | deletion formation / genotoxicity in words (S. cerevisiae)
Nc1ccc(O)cc1 [4-aminophenol] | greater than 2 fold | 
Cc1cc(C(C)(C)C)c(O)c(C(C)(C)C)c1 [BHT, 2,6-di-tert-butyl-4-methyl-phenol] |  | no significant genotoxicity; also recorded: do not increase the deletion formation
